Assay results from patent US20030109571A1, “Thromboxane ligands without blood clotting side effects” (ALLERGAN SALES, INC., priority 1993, published 2003).

Target: T1, TP-receptor (vascular, TPVASC) (Rattus norvegicus, UniProt P34978)
T1 construct: measured in vitro in isolated smooth muscle preparations; from tissue; host or cells: rings of isolated rat thoracic aorta
T1 sequence (P34978 1-341): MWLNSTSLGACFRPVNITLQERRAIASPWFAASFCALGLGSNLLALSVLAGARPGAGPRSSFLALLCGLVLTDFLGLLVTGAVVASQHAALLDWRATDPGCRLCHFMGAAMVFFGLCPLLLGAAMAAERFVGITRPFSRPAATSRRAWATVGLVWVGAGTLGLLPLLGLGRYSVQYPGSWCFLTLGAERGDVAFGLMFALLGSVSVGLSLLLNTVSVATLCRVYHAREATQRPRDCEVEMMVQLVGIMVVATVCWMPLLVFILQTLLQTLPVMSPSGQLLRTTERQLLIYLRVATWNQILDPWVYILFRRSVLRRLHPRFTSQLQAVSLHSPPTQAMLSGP
Test: TP-vasoconstrictor activity: contraction of rings of isolated rat thoracic aorta, without or with SQ29,548
Method: Activity at different prostanoid receptors was measured in vitro in isolated smooth muscle preparations. FP-activity was measured as contraction of the isolated feline iris sphincter. EP1-activity was measured as contraction of the longitudinal smooth muscle of the isolated guinea pig ileum. EP3-activity was measured as inhibition of the twitch response induced by electrical field stimulation in the isolated guinea pig was deferens and as contraction of the longitudinal smooth muscle of the isolated chick ileum. TP-vasoconstrictor activity was measured as contraction of rings of the isolated rat thoracic aorta. Effects on platelets from healthy human donors were measured by incubating platelet-rich plasma with the compounds described herein. Inhibition of aggregation was determined by the ability of the compounds described herein to inhibit platelet aggregation in platelet-rich plasma induced by 20 μM ADP.
In addition, inhibition by the thromboxane A2-receptor antagonist SQ29,548 ([1S-[1α, 2α (5Z), 3α, 4α]]-7-[3-[[2-[phenylamino)carbonyl]-hydrazino]methyl]-7-oxabicyclo[2.2.1] hept-2-yl]-5-heptenoic acid) of vasoconstrictor activity was investigated. For that purpose, activity of the compound of Example 4, the compound of Example 7, and U-46619 (9,11-dideoxy-9α,11α-methanoepoxy prostaglandin F2α), a potent and stable thromboxane A2 analog, was measured in rings of the isolated rat thoracic aorta, first in the absence and then in the presence of SQ29,548 (1 uM).

Substance: 9,11-dideoxy-9α,11α-methanoepoxy prostaglandin F2α [Example U-46619, reference compound]
- EC50 (Table 7, read-out: EC50 (Rat Aorta)): 10 nM
- EC50 (absence of SQ29,548, read-out: EC50 at TPVASC-receptor, rat aorta): 1.3 nM
- EC50 (presence of SQ29,548 (1 uM), read-out: EC50 at TPVASC-receptor, rat aorta): 8080 nM

Where two headings read alike, the source gives them in different places.
